The source of these data is patent publication US4000147A, “Anhydro-2-mercapto-1,3,4-thiadiazolium hydroxides” (BASF Aktiengesellschaft, priority 1974, dated 1976).

The structures appear in SMILES notation.

The subject of series [1] is maximum Pentetrazol-induced extension. Briefly: maximum tonic extension spasm after subcutaneous administration of 121 mg/kg of Pentetrazol (Table 3). The series is classed as in vivo, mice. As to conditions: in words.
Another series is described as follows: in vivo. To be noted: mouse. As to the method: The comparative experiments in Table 3 were carried out with anhydro-2-mercapto-4-methyl-5-(3'-chlorophenyl)-1,3,4-thiadiazolium hydroxide, referred to as substance A in the Table and in the subsequent text.
The next series concerns maximum electric shock. Nature of the series: maximum tonic electro-induced cramp (Table 3). The series is classed as in vivo, mice. To be noted: in words.

As for `O=C1NC(=O)C(c2ccccc2)(c2ccccc2)N1` [Phenytoin], the “activity in tonic cramp induced by Pentetrazol, relative to substance A” value in series [1] is “about twice as active”. In “in vivo”, this compound registered an LD50 of 360 mg/kg. Moreover, in the series with maximum electric shock, the “activity in cramp induced by electric shock, relative to substance A” value is recorded as “about twice as active”.

As a reminder, the LD50 is the dose at which mortality reaches 50%. Lower therefore signals greater toxicity.
